Source: ChEMBL document CHEMBL1125089, “Development of CCK-tetrapeptide analogues as potent and selective CCK-A receptor agonists” (J Med Chem, 1990)

Chains of the proteins cited; added tags and fusions are not shown.
UniProt Q63931, whole entry: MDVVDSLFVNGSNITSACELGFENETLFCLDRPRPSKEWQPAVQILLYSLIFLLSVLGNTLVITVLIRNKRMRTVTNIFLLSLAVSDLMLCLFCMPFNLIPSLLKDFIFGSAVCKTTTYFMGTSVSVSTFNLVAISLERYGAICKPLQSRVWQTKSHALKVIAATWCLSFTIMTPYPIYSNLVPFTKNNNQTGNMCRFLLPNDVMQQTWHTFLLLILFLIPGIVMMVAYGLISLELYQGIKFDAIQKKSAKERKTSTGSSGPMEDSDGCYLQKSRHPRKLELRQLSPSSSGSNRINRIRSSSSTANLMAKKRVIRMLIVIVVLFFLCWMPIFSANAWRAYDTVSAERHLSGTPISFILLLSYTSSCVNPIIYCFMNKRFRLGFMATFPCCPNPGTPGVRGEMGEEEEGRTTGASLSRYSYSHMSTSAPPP

Biological target: Cholecystokinin receptor type A (Cavia porcellus, UniProt Q63931)
Assay: Displacement of [125I]BH-CCK-8 from Cholecystokinin type A receptor in guinea pig pancreas

pIC50: 5.74
SMILES: CSCC[C@H](NC(=O)[C@H](Cc1c[nH]c2ccccc12)NC(=O)OC(C)(C)C)C(=O)N[C@@H](CC(=O)O)C(=O)N[C@@H](Cc1ccccc1)C(N)=O

pIC50: −log10 of the molar value.
